Assay [1] deals with T1, CDK2/CycE (Homo sapiens, UniProt P24941). The assay can be described thus: CDK2/CycE kinase assay (TR-FRET, Method 2a). In general terms: TR-FRET usually uses a lanthanide donor and a delayed reading to cut background.
The target in assay [2] is T1, CDK2/CycE. The assay can be described thus: CDK2/CycE high ATP kinase assay (TR-FRET, Method 2b).

IC50 data for 1 compound are collected here from patent publication US9790189B2, “Disubstituted 5-fluoro pyrimidine derivatives containing a sulfondiimine group” (Bayer Pharma Aktiengesellschaft, priority 2014, dated 2017).

One may read the IC50 as the concentration that inhibits the measured activity by half. A low value points to inhibition by little substance. For `COc1cc(F)ccc1-c1nc(Nc2cc(F)cc(CS(C)(=N)=N)c2)ncc1F` [Example 1, 5-Fluoro-4-(4-fluoro-2-methoxyphenyl)-N-{3-fluoro-5-[(S-methylsulfonodiimidoyl)methyl]phenyl}pyrimidin-2-amine], the figures for the half-maximal inhibitory concentration (IC50) against CDK2/CycE [1] and against CDK2/CycE [2] were 790 nM and 10.5 µM, respectively.
